Molecules are shown by their SMILES.

The subject of this test is amidase. In words: Substrate specificity of the isolated amidase (hydrolysis assay). Format: biochemical, Pseudonocardia thermophila. How it is done:
To carry out the hydrolysis assay, where not mentioned otherwise, use was made of a 5 mM benzamide solution in 500 μl of a 60 mM K-Na phosphate buffer, pH 7.2. The enzymatic reaction proceeded for one hour at 70° C. with addition of 5 μg of the enzyme. The reaction was stopped by cooling the reaction solution on ice. […] One unit (U) of amidase activity is defined as the amount of enzyme which catalyzes the formation of 1 μmol of benzoic acid per minute.
The substrate specificity of the amidase was tested at three different temperatures taking into account the substrate used in each case. For hydrolysis of amino acid amides, the reaction mixture was reacted for 3 h at 30° C., in the case of the aliphatic and cyclic amides 1 h at 50° C., and for aromatic amide substrates 1 h at 70° C. The enzymatic activity was then determined as described above. The control used was each batch without enzyme.

In the case of `NC(=O)c1ccc(O)cc1` [p-hydroxybenzamide], the Specific activity was 12.1 µmol/min/mg.
